From US20230242663A1, “COMBINATION THERAPY COMPRISING ANTI-CD137 ANTIBODIES” (Adagene PTE. LTD., priority 2020, published 2023)

What was measured:
[1] = tested on: human PBMCs; test: CD137 expression on the surface of IL-2-stimulated PBMCs (FACS); assay type: cell-based; settings: 100 and 1000 IU/mL of IL-2, 72 hours, in vitro
Protocol: Fresh human PBMCs were separated from the whole blood by a density gradient centrifugation method using Ficoll Histopaque. […] After 72 hours, PBMCs were collected and CD137 on the cell surface was stained as follows.
IL-2-stimulated PBMCs were stained with panels of antibodies to detect cell surface markers and thereby identify subsets of cell types in the PBMCs. […] Subsets of cell types in the PBMCs were sorted by fluorescence-activated cell sorting (FACS). CD137 expression on the different subsets of PBMCs was detected, and the data was analyzed using FlowJo software.

[2] = tested on: Lewis lung cancer cells; test: Mouse model of Lewis lung cancer, ADG106 with continuous high dose IL-2; assay type: in vivo, C57BL/6 mice
Text: C57BL/6 mice were transplanted subcutaneously with 5×10^5 Lewis lung cancer cells. […] Tumor growth was monitored twice weekly and reported as tumor volume±SEM over time.

[3] = tested on: Lewis lung cancer cells; test: Mouse model of Lewis lung cancer, ADG106 with IL-2 at low frequency high dose or continuous low dose; assay type: in vivo, C57BL/6 mice; settings: for tolerability in mice: intraperitoneal; for anti-tumor activity (tumor volume): alone or with ADG106 2.5 mg/kg twice weekly for 4 doses
Text: C57BL/6 mice were transplanted subcutaneously with 5×10^5 Lewis lung cancer cells. […] Tumor growth was monitored twice weekly and is reported as tumor volume±SEM over time.

IL-2: cytokine that regulates the activities of lymphocytes; recombinant human IL-2 in Example 1
CD137 expression on human NK, NKT, CD8+ and Treg cells [1]: strongly induced CD137 expression
toxicity in mice ([2]; continuous high dose IL-2 1.4×10^7 IU/m^2 twice a day, alone or with ADG106 5 mg/kg twice weekly, intraperitoneal): significant toxicity
anti-tumor activity (tumor volume) ([2]; continuous high dose IL-2, 1.4×10^7 IU/m^2 twice a day for 13 consecutive days, intraperitoneal): robust anti-tumor activity
animal death (animals of group) ([2]; continuous high dose IL-2 alone, on Day 19): ⅛
early termination of all other sick animals (animals of group) ([2]; continuous high dose IL-2 alone, on Day 22): ⅞
tolerability in mice ([3]; IL-2 continuous low dose (2.8×10^6 IU/m^2, twice a day for 5 consecutive days)): well tolerated
anti-tumor activity (tumor volume) ([3]; IL-2 continuous low dose regimen (2.8×10^6 IU/m^2)): weak anti-tumor activity
tolerability in mice ([3]; IL-2 low frequency high dose (twice a day, every 3 days for 4 doses)): well tolerated
anti-tumor activity (tumor volume) ([3]; IL-2 low frequency high dose regimen): weak anti-tumor activity
